## Yeast mating assay B: variants of the scFv Ab-14

Values reported by Li et al. 2023, doi:10.1038/s41467-023-39022-2 (FLAb copy).

Target: peptide PDVDLGDISGINAS, taken from heptad repeat 2 (HR2) of SARS-CoV-2 spike.

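Phage display of a naive human antibody library on the peptide gave the parent. The variants were designed computationally from a first round of random CDR variants and then made and measured. Group labels follow the data file (Ctrl: baseline library sampled from a position-specific scoring matrix, with some repeated check sequences; En: ensemble of fine-tuned language models; GP: Gaussian process model; HC: hill climbing; Gen: genetic algorithm; Gibbs: Gibbs sampling; a sequence that several methods proposed may carry one label only). The assay is AlphaSeq: two haploid yeast populations carry antibody and antigen on their surface. Pairs that bind mate more often; barcode pairs of the diploids are counted by sequencing. Read counts were normalised to the haploid input and turned into Kd by a linear fit to BCL2-family pairs of known affinity, for each replicate. Mating was done six times.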

Ab-14 is the parent antibody, in scFv form: VH, then three GGGGS repeats, then VL. The heavy chain is unchanged in all variants.
VH: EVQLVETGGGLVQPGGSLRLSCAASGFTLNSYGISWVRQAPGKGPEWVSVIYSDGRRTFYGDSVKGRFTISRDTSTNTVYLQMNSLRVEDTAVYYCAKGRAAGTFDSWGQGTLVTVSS
VL: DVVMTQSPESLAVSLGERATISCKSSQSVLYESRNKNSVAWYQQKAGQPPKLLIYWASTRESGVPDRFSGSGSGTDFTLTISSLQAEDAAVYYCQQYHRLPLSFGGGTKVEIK

Variants are written as CDR1, CDR2 and CDR3 of the light chain (limits as in the source). Parent: KSSQSVLYESRNKNSVA, WASTRES, QQYHRLPLS. Affinities are written as log10 Kd with Kd in nM; a lower number is a better binder. Replicates are averaged; those with no signal do not enter the mean. An entry "no signal" has no value in the source: the pair was not observed among the diploids in any replicate. This suggests poor binding but is not conclusive. The authors averaged sequences with at least three values out of six and counted those with two or fewer as poor binders. A sequence measured in both rounds can read differently, since the two assays cover different ranges. Background: pairings of all light chain designs with three empty control strains gave a value in 4% of cases (median 2.64, 5th percentile 1.59). Values in that range, when seen in few replicates, are hard to tell from nonspecific mating. The control count says in how many pairings with the empty strains this scFv gave a signal.

| CDR-L1 | CDR-L2 | CDR-L3 | group | mean, log10 nM | detected | empty controls |
|---|---|---|---|---|---|---|
| KISQSQLGESRNVNSVA | NASTRLS | QQYHRLPLS | GP_Gibbs | -0.09 | 6 of 6 | 0 of 18 |
| KMSQSWLGEDWNKNSVA | QASQRES | QQYHRLPLS | GP_Gibbs | 0.21 | 6 of 6 | 2 of 18 |
| KLQQSRLYMDRNANNVA | NASQRES | QQYHRLPLS | GP_Gibbs | 0.03 | 6 of 6 | 4 of 18 |
| KVPGSHLYESRNKNSVA | HASTRCS | QDYHRLPLS | GP_Gibbs | 0.57 | 6 of 6 | 4 of 18 |
| KSSQSVLYESHNKNSVA | NASQRMS | QQYHRLPLS | GP_HC | 1.24 | 6 of 6 | 1 of 18 |
| DSSQSDLYESRNKNSVA | GASTRES | QQYHRLPLS | GP_HC | -0.40 | 6 of 6 | 3 of 18 |
| KLSQSVWYESRMKNSVA | NASTREQ | QQYHRLPLS | GP_Gen | 0.38 | 6 of 6 | 0 of 18 |
| KFMGSMLYESRNENSVA | NASQRES | QQYHRLPLS | GP_Gibbs | 0.53 | 6 of 6 | 4 of 18 |
| QFDSSYRVGALNTDSIA | HAEMRVQ | QSYNRLPLM | En_Gibbs | 0.72 | 6 of 6 | 1 of 18 |
| KLTSLTGTEKVRGNNVA | EMETRER | QQYNRLPLA | En_Gen | 0.59 | 6 of 6 | 1 of 18 |
| KLSQSVLYESRNKNSVA | HASTRED | KQYHRLPLS | GP_HC | 0.84 | 6 of 6 | 0 of 18 |
| KVSVFMRGLTQRKDSIA | DNNTRQN | QQYDRLPLS | En_Gen | 0.87 | 6 of 6 | 1 of 18 |
| KFAQGIYEPKRHSHNIA | EASHVCD | QQYARLPLE | En_Gibbs | -0.14 | 5 of 6 | 0 of 18 |
| MISQVYNMGSFAINSVA | QASQRNA | QQYDRLPLI | En_Gen | 1.42 | 6 of 6 | 0 of 18 |
| KVSQSVLYESRTKNGVA | NASTRES | QQYHRLPLS | GP_HC | -0.24 | 6 of 6 | 0 of 18 |
| KLEMDTLGQKPKQNNIA | AARVSWE | QQYYMLPLS | En_Gibbs | 1.61 | 6 of 6 | 0 of 18 |
| KLPQSDLYESRNKNSVA | NASTRES | QQYHRLPLS | GP_Gen | -0.23 | 6 of 6 | 3 of 18 |
| KHSQSVLYESRNKNSIA | WASTRES | QQYHRLPLS | Ctrl | no signal | 0 of 6 | 0 of 18 |
| HITGAMELEWSNKYPVA | SATDRAP | QSYFRLPLM | En_Gibbs | 0.95 | 6 of 6 | 0 of 18 |
| KSSQTVLEESRNKNSVA | WASTHES | QQYHRLPNS | Ctrl | no signal | 0 of 6 | 1 of 18 |
| TISTSMRYESSLKNAIA | NAQTREY | QQYHRLPIS | En_HC | 0.80 | 6 of 6 | 1 of 18 |
| KITATMRFEQKNSNNIA | EVSTRSK | QQYVRLPLA | En_Gen | 0.20 | 6 of 6 | 0 of 18 |
| KLSQSQLYESRNKNSVA | QASTRES | QQYHRLPLS | GP_Gen | 0.26 | 6 of 6 | 0 of 18 |
| KLSVSTNYLSVNKNSVA | EMSTRES | QQYDRLPLS | En_HC | 0.76 | 6 of 6 | 0 of 18 |
| KSSSSVLNESRNKNSVA | WASTRES | TQYQRLPLS | Ctrl | no signal | 0 of 6 | 0 of 18 |
| TLMHHQDRQDNWKKSIA | EAIIRES | QQYSRLPLA | En_Gibbs | 2.14 | 6 of 6 | 1 of 18 |
| KSSQSVEYESRNKNSLA | GASTRES | QQYHRLELS | Ctrl | no signal | 0 of 6 | 0 of 18 |
| KSGQGGLYESRNKNSVA | GASTRES | QQYHRLPLH | GP_HC | 0.02 | 6 of 6 | 0 of 18 |
| KSSQSVLYESRNKNSVA | WASTCSM | QQYHRLLLS | Ctrl | no signal | 0 of 6 | 0 of 18 |
| MFSQMWGVGSKAKNSVA | QASMRFN | QQYDRLPLI | En_Gen | 1.10 | 6 of 6 | 1 of 18 |
| KSSQSVLYESRNKNSVA | GRSTRES | QQYHRLPLS | Ctrl | 0.77 | 6 of 6 | 2 of 18 |
| TVSQVHEMLSRDKNSVA | DMNTRES | QQYDRLPLS | En_HC | 0.65 | 6 of 6 | 1 of 18 |
| KLVQSELYESRNTNSVA | NASQRCS | QQYHRLPLS | GP_Gibbs | 0.11 | 6 of 6 | 0 of 18 |
| KSSQSVLYEWRNKNSVA | EASTREP | QQYHRLPLS | Ctrl | 0.51 | 6 of 6 | 0 of 18 |
| QLSMITGHYQMIKNNVA | EMETREN | QQYDRLPLA | En_Gen | 1.45 | 6 of 6 | 3 of 18 |
| HLKQVLNGVNKKSNSVA | HMNTREE | QQYDRLPLI | En_Gen | 0.53 | 6 of 6 | 0 of 18 |
| KVSQSQDYESRNKNSVA | NASTRES | QQYHRLPLS | GP_Gen | -0.16 | 6 of 6 | 0 of 18 |
| KLSIFHQVEQINKSNVA | EMVTRES | QQYDRLPLS | En_HC | 1.08 | 3 of 6 | 0 of 18 |
| KSDQSVLYESRNKNSVA | NASTRES | QQYHRLPLS | Ctrl | 0.03 | 6 of 6 | 2 of 18 |
| KLSQQWLYESRNKNSVA | NASLRLS | QCYHRLPLS | GP_Gibbs | 0.71 | 6 of 6 | 0 of 18 |
| KLQQSQLYESRNCNSVA | NASTRES | QQYHRLPLS | GP_Gen | 0.05 | 6 of 6 | 0 of 18 |
| KLPQSTMQENVSKNSVA | ELSTRGS | QQYHRLPLS | En_HC | 0.79 | 6 of 6 | 2 of 18 |
| KFSQKYLYEGRTKNSVA | NASTRES | QQYHRLPLS | GP_HC | 0.24 | 6 of 6 | 0 of 18 |
| KLAQSDLYESRNFNSVA | AASTRES | QQYHRLPLS | GP_Gibbs | 0.64 | 6 of 6 | 0 of 18 |
| KLEQSVLYESRNKNSVA | NASTRES | QQYHRLPLS | GP_Gen | -0.24 | 6 of 6 | 0 of 18 |
| KIWQSLLYESRNKNSVA | KATTRES | QQYHRLPLS | Ctrl | 0.66 | 6 of 6 | 0 of 18 |
| KFSQSVLYESRNKNSVA | NASTREW | QQYHRLPLS | GP_HC | -0.25 | 6 of 6 | 0 of 18 |
| DSSQSVLYESRNKNSVA | WASTRES | QQYHRLPLS | Ctrl | 1.45 | 6 of 6 | 0 of 18 |
| KLYVSTMLESHNKNSIA | DLSTRGN | QQYDRLPLS | En_HC | 0.22 | 6 of 6 | 1 of 18 |
| KSSQGDLYESRNKNSVA | GASTRES | QQYHRLPLS | GP_HC | -0.15 | 6 of 6 | 0 of 18 |
| KLSQQYLYESRNKNSVA | NASTRES | QQYHRLPLS | GP_Gen | 0.36 | 6 of 6 | 2 of 18 |

The first 6 entries again:

| CDR-L1 | CDR-L2 | CDR-L3 | group | mean, log10 nM | detected | empty controls |
|---|---|---|---|---|---|---|
| KISQSQLGESRNVNSVA | NASTRLS | QQYHRLPLS | GP_Gibbs | -0.09 | 6 of 6 | 0 of 18 |
| KMSQSWLGEDWNKNSVA | QASQRES | QQYHRLPLS | GP_Gibbs | 0.21 | 6 of 6 | 2 of 18 |
| KLQQSRLYMDRNANNVA | NASQRES | QQYHRLPLS | GP_Gibbs | 0.03 | 6 of 6 | 4 of 18 |
| KVPGSHLYESRNKNSVA | HASTRCS | QDYHRLPLS | GP_Gibbs | 0.57 | 6 of 6 | 4 of 18 |
| KSSQSVLYESHNKNSVA | NASQRMS | QQYHRLPLS | GP_HC | 1.24 | 6 of 6 | 1 of 18 |
| DSSQSDLYESRNKNSVA | GASTRES | QQYHRLPLS | GP_HC | -0.40 | 6 of 6 | 3 of 18 |